Article PMC9684503 (Communications Biology, 2022)
Several values for one entry are separate records, joined by “and”; a condition that tells them apart may be missing. Equal entries are not always repeated. Where two headings read alike, the source gives them in different places.

Sequences of proteins named here, by UniProt entry; tags and fusion partners are left off.
UniProt Q01827, whole entry: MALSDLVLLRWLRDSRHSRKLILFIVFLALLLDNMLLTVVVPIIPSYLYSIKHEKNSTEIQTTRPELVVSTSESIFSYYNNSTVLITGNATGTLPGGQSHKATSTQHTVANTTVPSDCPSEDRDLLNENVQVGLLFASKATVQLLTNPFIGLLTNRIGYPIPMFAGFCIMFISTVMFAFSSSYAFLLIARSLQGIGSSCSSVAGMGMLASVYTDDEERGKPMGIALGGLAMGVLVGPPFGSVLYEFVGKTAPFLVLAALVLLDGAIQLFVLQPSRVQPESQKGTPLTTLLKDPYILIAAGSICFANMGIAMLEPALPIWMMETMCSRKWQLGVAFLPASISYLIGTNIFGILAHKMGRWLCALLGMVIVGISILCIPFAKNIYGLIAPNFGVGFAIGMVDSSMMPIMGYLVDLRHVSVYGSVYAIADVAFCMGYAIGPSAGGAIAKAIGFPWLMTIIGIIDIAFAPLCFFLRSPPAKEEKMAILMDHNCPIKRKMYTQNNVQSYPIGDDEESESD
UniProt Q01827, whole entry Q143A: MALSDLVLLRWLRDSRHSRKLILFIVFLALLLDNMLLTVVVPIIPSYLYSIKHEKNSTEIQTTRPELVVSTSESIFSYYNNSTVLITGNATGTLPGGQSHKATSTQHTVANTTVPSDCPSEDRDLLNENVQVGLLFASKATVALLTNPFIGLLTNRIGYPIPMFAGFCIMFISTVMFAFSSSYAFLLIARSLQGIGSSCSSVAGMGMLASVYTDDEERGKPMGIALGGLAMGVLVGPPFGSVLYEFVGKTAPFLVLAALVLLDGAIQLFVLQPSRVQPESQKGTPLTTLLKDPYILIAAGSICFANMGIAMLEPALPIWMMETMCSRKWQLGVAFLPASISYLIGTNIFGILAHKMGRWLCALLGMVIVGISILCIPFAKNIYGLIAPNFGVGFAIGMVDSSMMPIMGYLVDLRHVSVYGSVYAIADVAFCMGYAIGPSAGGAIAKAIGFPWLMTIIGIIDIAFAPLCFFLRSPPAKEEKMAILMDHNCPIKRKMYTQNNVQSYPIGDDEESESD
UniProt Q01827, whole entry P314A: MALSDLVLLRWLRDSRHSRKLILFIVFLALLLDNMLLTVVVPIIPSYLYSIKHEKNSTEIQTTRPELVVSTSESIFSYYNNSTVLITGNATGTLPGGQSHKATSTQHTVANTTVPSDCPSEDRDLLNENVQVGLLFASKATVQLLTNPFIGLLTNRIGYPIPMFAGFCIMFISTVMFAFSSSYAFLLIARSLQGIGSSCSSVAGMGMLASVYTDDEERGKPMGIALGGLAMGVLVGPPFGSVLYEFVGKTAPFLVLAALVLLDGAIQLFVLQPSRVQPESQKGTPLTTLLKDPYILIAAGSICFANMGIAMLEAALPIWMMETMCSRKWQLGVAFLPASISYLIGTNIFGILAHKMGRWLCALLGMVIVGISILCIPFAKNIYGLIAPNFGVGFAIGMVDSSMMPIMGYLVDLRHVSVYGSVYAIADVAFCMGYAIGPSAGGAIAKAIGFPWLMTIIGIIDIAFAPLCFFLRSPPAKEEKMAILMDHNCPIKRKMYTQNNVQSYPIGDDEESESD

What was measured:
rat VMAT2 = rat VMAT2 (Rattus norvegicus, UniProt Q01827)
rat VMAT2 Q143A = rat VMAT2 Q143A (Rattus norvegicus, UniProt Q01827, Q143A); test: FFN206 uptake assay, VMAT2 mutant
rat VMAT2 P314A = rat VMAT2 P314A (Rattus norvegicus, UniProt Q01827, P314A); test: FFN206 uptake assay, VMAT2 mutant
VMAT2 = VMAT2 (Rattus norvegicus, UniProt Q01827);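 further: HEK293 cells transfected with VMAT2, pretreated 30 min with compound, then given 5 nM [3H]-DTBZ for 20 min at 37 °C, bound label read by scintillation counting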

Row | SMILES | IC50 (rat VMAT2; read-out: IC50 (FFN206 substrate uptake), Table 3, VMAT2 Wild-type) [nM] | IC50 (rat VMAT2; read-out: IC50 for VMAT2 inhibition (FFN206 uptake), Table 1, mean ± SD of n ≥ 3 independent experiments) [nM] | IC50 (rat VMAT2 Q143A) [nM] | IC50 (rat VMAT2 P314A) [nM] | VMAT2-specific FFN206 uptake relative to DMSO (=1), replicate samples (rat VMAT2; Fig. 2a source data, 25 μM compound) | effect on [3H]-DTBZ binding compared with DMSO control (one-way ANOVA, p < 0.001) (VMAT2; 50 μM compound) | activity (VMAT2; hek293 cells, 50 µM) [%]
1 | COc1cc2c(cc1OC)C1CC(=O)C(CC(C)C)CN1CC2 (stereo not shown) [Tetrabenazine] | 37 ± 28 | 37 ± 28 | 366 ± 49 | 339 ± 172 |  |  | 
2 | COC(=O)[C@H]1[C@H]2C[C@@H]3c4[nH]c5cc(OC)ccc5c4CCN3C[C@H]2C[C@@H](OC(=O)c2cc(OC)c(OC)c(OC)c2)[C@@H]1OC [Reserpine] |  |  |  |  | 0.1515 and 0.09684 and 0.1376 | statistically significantly effect | 7.02 ± 11.2
